Results reported in patent US10961236B2, “(S)-2-(1-cyclopropylethyl)-5-(4-methyl-2-((6-(2-oxopyrrolidin-1-yl)pyridin-2-yl)amino) thiazol-5-yl)-7-(methylsulfonyl)isoindolin-1-one as a phosphatidylinositol 3-kinase inhibitor” (AstraZeneca AB, priority 2016, dated 2021).
pIC50: −log10 of the molar value.

Amino acid sequences for entries named in this document (tags omitted). A change or cut given only in a name is not applied to a line headed by its entry.
UniProt O00329: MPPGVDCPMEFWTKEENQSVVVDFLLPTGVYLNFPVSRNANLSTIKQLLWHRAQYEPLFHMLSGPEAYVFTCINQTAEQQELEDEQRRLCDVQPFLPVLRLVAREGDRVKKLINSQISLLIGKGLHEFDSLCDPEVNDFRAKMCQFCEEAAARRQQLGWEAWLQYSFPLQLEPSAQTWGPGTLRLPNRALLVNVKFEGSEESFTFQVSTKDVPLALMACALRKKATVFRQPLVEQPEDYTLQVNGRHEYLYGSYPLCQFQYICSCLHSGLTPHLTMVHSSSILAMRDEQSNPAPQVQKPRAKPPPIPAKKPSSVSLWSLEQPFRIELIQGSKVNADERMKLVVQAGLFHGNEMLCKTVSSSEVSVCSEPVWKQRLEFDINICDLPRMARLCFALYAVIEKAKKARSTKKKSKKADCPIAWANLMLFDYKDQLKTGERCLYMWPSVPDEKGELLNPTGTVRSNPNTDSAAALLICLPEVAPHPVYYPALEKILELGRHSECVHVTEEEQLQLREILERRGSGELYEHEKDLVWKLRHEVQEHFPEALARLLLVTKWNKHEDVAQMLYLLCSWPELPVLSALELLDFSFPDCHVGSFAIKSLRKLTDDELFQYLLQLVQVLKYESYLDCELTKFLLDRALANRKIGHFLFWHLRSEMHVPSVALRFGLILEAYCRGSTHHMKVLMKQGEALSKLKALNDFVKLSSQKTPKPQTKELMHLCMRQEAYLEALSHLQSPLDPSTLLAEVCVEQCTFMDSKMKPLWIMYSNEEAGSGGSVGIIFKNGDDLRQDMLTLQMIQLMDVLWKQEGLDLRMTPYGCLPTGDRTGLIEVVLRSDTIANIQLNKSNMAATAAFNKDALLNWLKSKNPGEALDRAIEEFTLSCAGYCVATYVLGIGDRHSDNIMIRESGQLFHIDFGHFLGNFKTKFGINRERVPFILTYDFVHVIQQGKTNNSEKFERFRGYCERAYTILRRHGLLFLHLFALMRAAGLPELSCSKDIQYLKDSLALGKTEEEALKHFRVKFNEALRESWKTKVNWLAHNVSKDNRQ

Target: recombinant human PI3Kδ (6-His(p110-p85α)) (Homo sapiens (Human), UniProt O00329)
Test: Enzymatic activity assay for recombinant human PI3Kδ (ADP-Glo)
Assay type: biochemical
Details: 0.6 nM PI3Kδ, 20 μM ATP, 80 μM DiC8-PIP2, ADP-Glo
Procedure: Enzymatic Activity Assay for Recombinant Human PI3K α, β, δ and γ.
The activity of recombinant human PI3Kγ ((aa144-1102)-6His) and PI3Kα, β, δ (6-His(p110-p85α)) was determined by measuring the ADP level after phosphorylation of DiC8-PIP2 using a commercially available ADP-Glo™ kit from Promega. The assay was carried out in white low volume 384 well plates in a final volume of 14 μl at R.T. The assay conditions contained the following: 50 mM Tris buffer pH 7.4, 2.1 mM DTT, 3 mM MgCl2, 0.05% CHAPS, 20 μM ATP, 80 μM DiC8-PIP2 and 1.2 nM PI3Kα, β, γ or 0.6 nM PI3Kδ. […] Routinely, inhibitors were pre-incubated with 3 μl of enzyme for 15 min prior to the addition of 2 μl substrate mixture for a further 60 min enzyme reaction. The phosphorylation was stopped with the addition of 3 μl ADP-Glo™ reagent (stop solution) followed by a 40 min incubation. Prior to detection 6 μl of ADP-Glo™ Kinase Detection Reagent was added and the plates were read in a micro plate reader using a Luminescence filter. All additions were followed by a short centrifugation step.

A pIC50 of 8.96 was found for `Cc1nc(Nc2cccc(N3CCOCC3=O)n2)sc1-c1cc2c(c(S(=O)(=O)NC3COC3)c1)C(=O)N([C@@H](C)C1CC1)C2` [Example 31, 2-[(1S)-1-Cyclopropylethyl]-6-(4-methyl-2-{[6-(3-oxomorpholin-4-yl)pyridin-2-yl]amino}-1,3-thiazol-5-yl)-N-(oxetan-3-yl)-3-oxo-2,3-dihydro-1H-isoindole-4-sulfonamide] in this work.
A pIC50 of 8.85 was found for `Cc1nc(Nc2cccc(N3CCOCC3=O)n2)sc1-c1cc2c(c(S(C)(=O)=O)c1)C(=O)N([C@@H](C)C1CC1)C2` [Example 7, 2-[(1S)-1-Cyclopropylethyl]-5-(4-methyl-2-{[6-(3-oxomorpholin-4-yl)pyridin-2-yl]amino}-1,3-thiazol-5-yl)-7-(methylsulfonyl)-2,3-dihydro-1H-isoindol-1-one] in this work.
